Patent publication US5804595A, “Kappa opioid receptor agonists” (dated 1998)

Key:
[1] = test system: mouse vas deferens (MVD) preparations; assay: Agonist potency in mouse vas deferens (MVD)
[2] = Mouse abdominal stretch (writhing) antinociception assay, icv and iv; settings: for icv - ED50 / iv - ED50: writhing, mice, converted from nmol/mouse with 25 g/mouse
[3] = target: δ receptor (Mus musculus, UniProt P32300); assay: Mouse abdominal stretch assay with δ antagonist naltrindole (NTI); settings: for ED50 ratio, NTI (δ): agonist sc, NTI 20.37 μmol/kg sc, 24 h peak time, ED50 in antagonist-treated / control ED50, 95% confidence levels; for effect of NTI on ED50, in words: δ antagonist
[4] = target: κ receptor (Mus musculus, UniProt P33534); assay: Mouse abdominal stretch assay with κ antagonist norBNI; settings: for effect of nor-BNI on ED50, in words: κ-selective antagonist; for receptor selectivity of antinociceptive effect, in words: mouse abdominal stretch assay
[5] = target: μ receptor (Mus musculus, UniProt P42866); assay: Mouse abdominal stretch assay with μ antagonist β-funaltrexamine (β-FNA); settings: for ED50 ratio, β-FNA (μ): agonist sc, β-FNA 44.44 μmol/kg sc, 30 min peak time, ED50 in antagonist-treated / control ED50, 95% confidence levels; for effect of β-FNA on ED50, in words: μ antagonist
[6] = target: κ opioid receptor (Cavia porcellus, UniProt P41144); assay: Competition binding to κ receptors, [3H]U69,593, guinea pig brain membranes; settings: for selectivity δ2/κ: Ki ratio δ2/κ; for selectivity μ/κ: Ki ratio μ/κ; for binding to the κ opioid receptor, in words / Ki: guinea-pig brain; for Ki: read-out: Ki (nM) κ, 1 nM [3H]U69,593, geometric means of three experiments
[7] = test system: guinea pig longitudinal ileal muscle (GPI) preparations; assay: Agonist potency in electrically stimulated guinea pig ileal longitudinal muscle (GPI); settings: for IC50: GPI, arithmetic means of at least three experiments
[8] = cited from earlier work
[9] = read-out: IC50 (nM) ± SEM, MVD (Agonist Potencies of Parent Compounds), arithmetic means of at least three experiments
[10] = read-out: IC50 (nM) ± SEM, GPI (Agonist Potencies of Parent Compounds)
[11] = read-out: GPI - IC50 (nM) (Amino-Acid Conjugates)

CN(C(=O)Cc1ccc(Cl)c(Cl)c1)[C@H](CN1CCCC1)c1cccc(NC(=O)[C@H](N)CC(=O)O)c1 [listing 1 of 2 here]
IC50 ([1]; read-out: MVD - IC50 (nM) (Amino-Acid Conjugates), arithmetic means of at least three experiments): 4.06 nM
selectivity (iv/icv) [2]: 43.6
icv - ED50 [2]: 46 nmol/kg
iv - ED50 [2]: 2015 nmol/kg
ED50 ratio, NTI (δ) [3]: 0.55
effect of NTI on ED50, in words [3]: not affected significantly
effect of nor-BNI on ED50, in words [4]: not affected significantly
ED50 ratio, β-FNA (μ) [5]: 1.75
effect of β-FNA on ED50, in words [5]: not affected significantly
selectivity δ2/κ [6]: 590
selectivity μ/κ [6]: 266
binding to the κ opioid receptor, in words [6]: retained high affinity and selectivity binding to the κ opioid receptor

CN(C(=O)Cc1ccc(Cl)c(Cl)c1)[C@@H](CN1CCCC1)c1ccccc1
IC50 [1, 9]: 87 nM

CN(C(=O)Cc1ccc(Cl)c(Cl)c1)C(CN1CCCC1)c1ccc([N+](=O)[O-])cc1 (racemic)
IC50 [7, 10]: 100 nM

CN(C(=O)Cc1ccc(Cl)c(Cl)c1)[C@H](CN1CCCC1)c1cccc(NC(=O)[C@H](N)CC(=O)O)c1 [listing 2 of 2 here]
Ki [6]: 0.97 nM

CN(C(=O)Cc1ccc(Cl)c(Cl)c1)[C@H](CN1CCCC1)c1cccc(NC(=O)CC[C@@H](N)C(=O)O)c1
IC50 [7, 11]: 0.39 nM

C=CC[N+]1(C)CC[C@]23c4c5ccc(O)c4O[C@H]2C(=O)CC[C@@]3(O)[C@H]1C5 (some centres unmarked)
toxic effects at high dosages [8]: produces tumors and convulsions

CN(C(=O)Cc1ccc(Cl)c(Cl)c1)[C@H](CN1CCCC1)c1ccccc1
IC50 [1, 9]: 2.5 nM
selectivity (iv/icv) [2]: 1.4
icv - ED50 [2]: 12 nmol/kg
iv - ED50 [2]: 17 nmol/kg
IC50 [7, 10]: 0.27 nM

CN(C(=O)Cc1ccc(Cl)c(Cl)c1)[C@H](CN1CCCC1)c1cccc([N+](=O)[O-])c1
IC50 [1, 9]: 2.49 nM
IC50 [7, 10]: 16.2 nM

CN(C(=O)Cc1ccc(Cl)c(Cl)c1)[C@H](CN1CCCC1)c1cccc(N)c1
IC50 [1, 9]: 0.12 nM
IC50 [7, 10]: 0.17 nM

CN(C(=O)Cc1ccc(Cl)c(Cl)c1)[C@H](CN1CCCC1)c1cccc(NC(=O)[C@@H](N)CC(=O)O)c1
selectivity (iv/icv) [2]: 15.7
icv - ED50 [2]: 6.8 nmol/kg
iv - ED50 [2]: 105 nmol/kg
ED50 ratio, NTI (δ) [3]: 0.92
effect of NTI on ED50, in words [3]: ineffective
receptor selectivity of antinociceptive effect, in words [4]: κ-selective
effect of nor-BNI on ED50, in words [4]: significantly increased the ED50 values
IC50 [7, 11]: 0.84 nM
ED50 ratio, β-FNA (μ) [5]: 2.86
effect of β-FNA on ED50, in words [5]: ineffective
selectivity δ2/κ [6]: 5290
selectivity μ/κ [6]: 2270
binding to the κ opioid receptor, in words [6]: retained high affinity and selectivity binding to the κ opioid receptor
Ki [6]: 0.2 nM

CN(C(=O)Cc1ccc(Cl)c(Cl)c1)C(CN1CCCC1)c1ccc(N)cc1 (racemic)
IC50 [1, 9]: 4.45 nM
potency in GPI, in words ([7]; compared with 15 in the GPI): retained potencies comparable to the more potent enantiomer 15
IC50 [7, 10]: 0.65 nM

CN(C(=O)Cc1ccc(Cl)c(Cl)c1)[C@H](CN1CCCC1)c1cccc(NC(=O)C[C@H](N)C(=O)O)c1
ED50 ratio, NTI (δ) [3]: 1.01
effect of NTI on ED50, in words [3]: ineffective
receptor selectivity of antinociceptive effect, in words [4]: κ-selective
effect of nor-BNI on ED50, in words [4]: significantly increased the ED50 values
IC50 [7, 11]: 0.55 nM
ED50 ratio, β-FNA (μ) [5]: 2.56
effect of β-FNA on ED50, in words [5]: ineffective

Like-named read-outs stand apart in the source and are kept apart here.
